# Apparent affinities of Ab-95 variants for a coronavirus HR2 peptide

Values reported by Engelhart et al. 2022, doi:10.1038/s41597-022-01779-4 (FLAb copy).

Target: peptide PDVDLGDISGINAS, taken from heptad repeat 2 (HR2) of SARS-CoV-2 spike.

The variants keep the heavy chain, the linker and the frameworks of Ab-95 (scFv order VH, a 15-residue (Gly4Ser)3 linker, VL).
VH: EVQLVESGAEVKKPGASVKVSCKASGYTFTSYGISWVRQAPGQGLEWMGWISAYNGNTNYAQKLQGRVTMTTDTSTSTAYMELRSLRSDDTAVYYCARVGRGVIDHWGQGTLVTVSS
VL: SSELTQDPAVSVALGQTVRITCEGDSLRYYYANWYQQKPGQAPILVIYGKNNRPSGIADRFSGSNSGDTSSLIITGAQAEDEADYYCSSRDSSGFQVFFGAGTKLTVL

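The starting antibody came from a phage panning campaign against this peptide. Variants in AAYL52 differ from the parent at up to three CDR positions; double and triple changes were sampled at random. AlphaSeq pools MATa yeast showing the antibodies with MATalpha yeast showing the peptide. Pairs that bind mate more often; barcode pairs of the diploids are counted by sequencing. Scores were corrected for input abundance and mapped to Kd with protein pairs of known affinity run in the same pool. The assay was run in three technical replicates.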

Variants are written as CDR1, CDR2 and CDR3 of the light chain (limits as in the source). Parent: EGDSLRYYYAN, GKNNRPS, SSRDSSGFQVF.
All variants listed here change N52 of the VL, counted from its first residue.
The Kd shown is the geometric mean over detected replicates; a lower Kd is a better binder.
A pair that was not seen in any replicate is written "nd"; this usually means weak binding, but a binder can also be missed.
In this assay the parent's reference entry averaged 200 nM; its copy inside this library read 180 nM.
Background: pairings of library AAYL52 with three empty control strains gave a value in 28% of cases (median 8.2 µM, 5th percentile 800 nM). Values in that range, when seen in few replicates, are hard to tell from nonspecific mating. Also given: how often the same scFv was detected with the empty control strains.

For EGDSLRHYYAN | GKNDRPS | SSRDSSGFQVF, the assay gave 51 nM (3 of 3 replicates; controls 3 of 9). With EGDSLRYYYAN | GKNERPS | SSRDSSGFQSY the result was 65 nM (3 of 3 replicates; controls 1 of 9). Variant EGDSLRYYYAN | GKTDRPS | YSRDSSGFQVF gave 7.6 µM (2 of 3 replicates; controls 5 of 9). Variant EGDSLRYYYAC | GKNHCPS | SSRDSSGFQVF gave 7.6 µM (1 of 3 replicates; controls 2 of 9). Variant EGDSLRYNYAN | GKNDRPS | SSSDSSGFQVF showed 4.0 nM (3 of 3 replicates; controls 0 of 9). For EGDSLRYYYAN | GCNYRPS | WSRDSSGFQVF, the assay gave nd (0 of 3 replicates; controls 5 of 9).

Variant EGDSLRYYYAN | GKNVRPS | SSHDSSGFQSF gave 410 nM (3 of 3 replicates; controls 4 of 9). Variant EGDSERYYYAN | GKHHRPS | SSRDSSGFQVF gave 12 µM (1 of 3 replicates; controls 1 of 9). For EGDSLRYYYAN | GKNIRKS | YSRDSSGFQVF, the assay gave 730 nM (3 of 3 replicates; controls 3 of 9). Variant EGDSLRYYYAN | IKPDRPS | SSRDSSGFQVF gave 210 µM (2 of 3 replicates; controls 2 of 9). Variant EGDSLRYYYAN | GKNTRPS | SARDTSGFQVF gave 22 nM (3 of 3 replicates; controls 2 of 9). Variant EGDSLRYYYAN | GVPSRPS | SSRDSSGFQVF showed 110 µM (1 of 3 replicates; controls 1 of 9).

With IGDSLRYYYAN | GKWVRPS | SSRDSSGFQVF the result was 5.6 µM (2 of 3 replicates; controls 6 of 9). With CGDSLRYYEAN | GKNRRPS | SSRDSSGFQVF the result was 76 nM (3 of 3 replicates; controls 3 of 9). Variant ESDSLRYYYAN | GKVVRPS | SSRDSSGFQVF showed 17 µM (2 of 3 replicates; controls 2 of 9). Variant EGDSLRYEYAN | GKNIRPS | SSRDSSGFQVF gave 9.5 nM (3 of 3 replicates; controls 1 of 9). With EGDSPRYYGAN | GKNIRPS | SSRDSSGFQVF the result was 540 nM (3 of 3 replicates; controls 2 of 9). Variant VGDSLRYYYAN | GKNCRPS | SSHDSSGFQVF showed 1.3 µM (2 of 3 replicates; controls 2 of 9).

Variant EGDSLRYYYAN | GKNIRPS | RSGDSSGFQVF gave 7.1 µM (3 of 3 replicates; controls 0 of 9). With EGDSLRNYYAN | GKNKRPS | WSRDSSGFQVF the result was 530 nM (3 of 3 replicates; controls 2 of 9). Variant EGDSLRYYYAN | GQNKRPS | SSRDMSGFQVF gave 360 nM (3 of 3 replicates; controls 2 of 9). Variant EGDNLRYYYAN | GKNRRPS | SSRDSAGFQVF showed 7.5 µM (2 of 3 replicates; controls 1 of 9). For EGTSLRCYYAN | GKNKRPS | SSRDSSGFQVF, the assay gave nd (0 of 3 replicates; controls 0 of 9). For EGDSLRYYYAN | GKNLRPS | SSRDVSGSQVF, the assay gave 190 nM (3 of 3 replicates; controls 2 of 9).

For EGDSLRVYYAN | GKNDVPS | SSRDSSGFQVF, the assay gave nd (0 of 3 replicates; controls 2 of 9). For EGDSLRYYYAR | GKNQRPS | SSRDSSGFQEF, the assay gave 160 µM (2 of 3 replicates; controls 4 of 9). Variant ERDSLRYYYAN | GKNQRPS | SSRDSSGGQVF showed nd (0 of 3 replicates; controls 1 of 9). With EADSLRYYYAN | GKNRRPS | SCRDSSGFQVF the result was 1.7 µM (3 of 3 replicates; controls 5 of 9). For EGDSLRYYYAN | GKNKRPS | MMRDSSGFQVF, the assay gave 10 µM (2 of 3 replicates; controls 4 of 9). With EGDSLRVYYAN | GKNSRPS | SSCDSSGFQVF the result was 2.1 µM (1 of 3 replicates; controls 2 of 9).

Variant EGDSLRYGYAN | GKNTRPS | SMRDSSGFQVF showed 5.4 nM (3 of 3 replicates; controls 1 of 9). For EGVSYRYYYAN | GKNWRPS | SSRDSSGFQVF, the assay gave nd (0 of 3 replicates; controls 1 of 9).

Repeated from above, the 3 best binders with a signal in all replicates:

CDR-L1	CDR-L2	CDR-L3	apparent Kd	detected	control signals
EGDSLRYNYAN	GKNDRPS	SSSDSSGFQVF	4.0 nM	3 of 3	0 of 9
EGDSLRYGYAN	GKNTRPS	SMRDSSGFQVF	5.4 nM	3 of 3	1 of 9
EGDSLRYEYAN	GKNIRPS	SSRDSSGFQVF	9.5 nM	3 of 3	1 of 9